From patent publication US20140030266A1 come the findings set out here.

Assay [1] addresses MIF receptor CD74 ectodomain (CD74 73-232, sCD74) (UniProt P04233). Kind of assay: SPR (BIAcore 2000), sCD74 immobilized, ligand in solution. In general terms: SPR reads the build-up and loss of mass on a sensor chip optically.
Assay [2] shares this target. The experiment in a line: SPR (BIAcore 2000), sCD74 immobilized.

B1: human macrophage migration inhibitory factor (MIF), recombinant (ligand, UniProt P14174 2-115, looked up)
chain: PMFIVNTNVPRASVPDGFLSELTQQLAQATGKPPQYIAVHVVPDQLMAFGGSSEPCALCSLHSIGKIGGAQNRSYSKLLCGLLAERLRISPDRVYINYYDMNAANVGWNNSTFA
The term Kd denotes a measure of binding affinity in units of concentration. High values mean a looser complex, low ones a tighter complex. Broadly, the koff is the rate constant with which the complex falls apart. A higher koff goes with a short-lived complex. For orientation: kon means the second-order rate constant of association. A lower kon goes with slower complex formation. Turning to B1, the Kd in assay [1] worked out at 1.4 nM. In assay [2], this molecule yielded a fold lower dissociation rate (kd) than D-DT of 11 fold, a koff of 6e-05 s⁻¹ and a kon of 43000 M⁻¹ s⁻¹.
